The values that follow come from US11214540B2, “Compositions for treating neurodegenerative diseases” (COGNITION THERAPEUTICS, INC., priority 2017, dated 2022).

Sequences of proteins named here, by UniProt entry; tags and fusion partners are left off.
UniProt Q12809, whole entry: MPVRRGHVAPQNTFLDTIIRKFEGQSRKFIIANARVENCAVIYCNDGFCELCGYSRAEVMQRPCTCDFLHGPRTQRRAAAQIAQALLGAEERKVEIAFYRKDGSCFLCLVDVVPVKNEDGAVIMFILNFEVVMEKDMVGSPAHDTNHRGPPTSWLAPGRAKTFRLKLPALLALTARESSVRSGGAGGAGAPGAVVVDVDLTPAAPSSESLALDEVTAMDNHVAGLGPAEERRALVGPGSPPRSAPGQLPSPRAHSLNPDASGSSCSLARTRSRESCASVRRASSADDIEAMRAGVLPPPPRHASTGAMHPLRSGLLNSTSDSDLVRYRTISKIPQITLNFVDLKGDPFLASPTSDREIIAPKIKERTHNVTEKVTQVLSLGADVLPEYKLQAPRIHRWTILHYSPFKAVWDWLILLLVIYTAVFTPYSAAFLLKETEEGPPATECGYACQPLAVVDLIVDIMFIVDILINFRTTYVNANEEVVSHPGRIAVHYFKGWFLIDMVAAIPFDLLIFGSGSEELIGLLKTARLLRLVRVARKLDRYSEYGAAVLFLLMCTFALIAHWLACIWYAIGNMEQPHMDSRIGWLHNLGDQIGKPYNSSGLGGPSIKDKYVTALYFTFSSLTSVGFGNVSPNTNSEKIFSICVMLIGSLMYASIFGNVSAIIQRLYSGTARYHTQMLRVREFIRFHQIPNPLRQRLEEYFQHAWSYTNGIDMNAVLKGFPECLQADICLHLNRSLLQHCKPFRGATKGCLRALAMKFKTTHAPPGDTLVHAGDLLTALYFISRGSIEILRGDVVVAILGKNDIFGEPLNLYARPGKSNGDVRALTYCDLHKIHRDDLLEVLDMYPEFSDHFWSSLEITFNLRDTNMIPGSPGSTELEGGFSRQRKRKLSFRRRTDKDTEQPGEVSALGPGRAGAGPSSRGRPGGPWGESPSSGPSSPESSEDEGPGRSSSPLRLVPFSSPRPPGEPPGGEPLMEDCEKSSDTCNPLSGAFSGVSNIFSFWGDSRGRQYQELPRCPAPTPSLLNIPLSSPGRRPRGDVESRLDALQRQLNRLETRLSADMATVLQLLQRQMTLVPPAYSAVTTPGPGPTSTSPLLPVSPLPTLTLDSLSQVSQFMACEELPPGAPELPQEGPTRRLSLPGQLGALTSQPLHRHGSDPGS
UniProt Q99720, whole entry: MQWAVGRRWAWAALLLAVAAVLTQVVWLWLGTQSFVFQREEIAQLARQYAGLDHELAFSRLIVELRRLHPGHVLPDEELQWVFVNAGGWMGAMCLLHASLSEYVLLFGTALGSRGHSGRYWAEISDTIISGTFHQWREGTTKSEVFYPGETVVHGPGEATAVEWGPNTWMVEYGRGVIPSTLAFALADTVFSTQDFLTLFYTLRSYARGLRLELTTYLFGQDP
UniProt Q5U3Y7, whole entry: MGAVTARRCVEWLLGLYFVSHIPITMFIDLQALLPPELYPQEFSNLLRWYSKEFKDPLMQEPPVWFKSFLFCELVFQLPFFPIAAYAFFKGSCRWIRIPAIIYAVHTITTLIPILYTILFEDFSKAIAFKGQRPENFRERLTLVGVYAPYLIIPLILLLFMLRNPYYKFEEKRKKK

A short description of series [1]: log P. Format: physicochemical.
For series [2], the target named is potassium channel hERG (Homo sapiens (Human), UniProt Q12809). Description: In vitro testing for hERG inhibition. The following applies: read-out: hERG IC50; in vitro toxicity potassium channel hERG. A general note: Block of hERG is tested as a sign of cardiac risk.
The nature of series [3]: Mouse liver microsome (MLM) stability. The note with it: microsomal stability in mouse liver microsomes (MLM). On the technique in general: Liver microsomes are a subcellular fraction often used to study metabolism.
Series [4] addresses Sigma-1 receptors on Jurkat cell membranes (Homo sapiens (Human), UniProt Q99720). Description: Competitive Radioligand Binding Assay 1, Sigma-1 binding ([3H](+)pentazocine displacement). The note with it: read-out: S1 Ki; sigma-1 receptor affinity.
The test system of series [5] is Abeta oligomer-induced membrane trafficking deficits in primary hippocampal neurons. Description: Membrane Trafficking/Exocytosis (MTT) assay, Abeta oligomer effect on neurons. The note with it: read-out: EC50 Abeta.
The target of series [6] is Sigma-2 receptors on membranes from rat cerebral cortex (Rattus norvegicus (Rat), UniProt Q5U3Y7). Put plainly: Competitive Radioligand Binding Assay 1, Sigma-2 binding ([3H]DTG displacement with (+)pentazocine mask). The following applies: read-out: S2 Ki; sigma-2 receptor affinity.

Bounds are passed on as bounds.

As usually defined, the log P is the decadic logarithm of the partition coefficient of the neutral form, usually between octanol and water. A lower log P goes with lower lipophilicity. For orientation: IC50 means the midpoint of a concentration-inhibition curve. For orientation: Ki means the dissociation constant of the complex between target and ligand, obtained from inhibition or displacement. `CC(C)=CC(CC(C)(C)c1ccc(C(F)(F)F)cc1)N1CCC2(CCOCC2)CC1` (stereo not shown) returned a log P in series [1] of 6.15. The IC50 in series [2] turned out to be 23 µM. Moreover, the “MLM T1/2” value in series [3] came to 60 min. For the same compound, in series [4], the inhibition constant (Ki) amounted to 5.3 nM.

As usually defined, the EC50 is the concentration needed to bring the measured effect to its halfway point. On to `CC(C)=CC(CC(C)(C)c1ccc(C)cc1)NC(C)c1ccccc1` (stereo not shown), for which the log P in series [1] worked out at 6.93. Further, the EC50 in series [5] is 560 nM.

As for `CC(C)=CC(CC(C)(C)c1ccc(F)cc1)N1CCC(C(F)(F)F)CC1` (stereo not shown), in series [1], the log P was 6.21. For the same compound, the EC50 in series [5] turned out to be 300 nM. In series [2], the IC50 worked out at 18 µM. In addition, in series [3], the “MLM T1/2” value worked out at 3.5 min. Moreover, the Ki in series [4] was 370 nM.

In the case of `CC(C)=CC(CC(C)(C)c1ccc(C)cc1)N1CCC(c2ccncc2)CC1` (stereo not shown), the log P in series [1] was 6.22. Besides, the EC50 in series [5] was 400 nM.

With `COc1ccc(C(C)(C)CC(C=C(C)C)N2CCC(c3ccncc3)CC2)cc1` (stereo not shown), the log P in series [1] came out at 5.55.

In series [1], `CC(C)=CC(CC(C)(C)c1ccc(F)cc1)N1CCN(C(=O)OCC(C)C)CC1` (stereo not shown) yielded a log P of 5.74. Moreover, the values for the inhibitory constant (Ki) in series [6] and in series [4] were 94 nM and 575 nM, respectively. The concentration for half-maximal inhibition (IC50) in series [2] is 2.4 µM.

As for `CC(C)=CC(CC(C)(C)c1ccc(F)cc1)NCC1CCOCC1` (stereo not shown), the log P in series [1] worked out at 4.84. Also, the IC50 in series [2] was found to be 16 µM. Also, in series [3], the “MLM T1/2” value worked out at 8.8 min. Further, the inhibition constant Ki in series [4] came out at 39 nM.

In the case of `CC(C)=CC(CC(C)(C)c1ccc(Cl)cc1)N1CCC(CO)CC1` (stereo not shown), the log partition coefficient (log P) in series [1] turned out to be 5.04. Besides, the IC50 in series [2] stood at 6.9 µM. Moreover, in series [3], the “MLM T1/2” value is 88 min. Besides, the Ki in series [4] was 150 nM.

Turning to `COc1ccc(CCC(C)(C)N2Cc3ccc(S(C)(=O)=O)cc3C2)cc1OC`, the Ki in series [6] is 11 nM.

`CC(C)=CC(CC(C)(C)c1ccc(C(F)(F)F)cc1)N1CCC(C)(C)CC1` (stereo not shown) showed a log P in series [1] of 6.97. Besides, the concentration for a half-maximal effect (EC50) in series [5] is 2200 nM. Also, the IC50 in series [2] was found to be 6.5 µM. For the same compound, in series [3], the “MLM T1/2” value is 83 min.

The compound `CC(CC(C)(C)c1ccc(Cl)cc1)N1CCC(CCO)CC1` (stereo not shown) registered a lipophilicity (log P) in series [1] of 4.4. In series [5], the EC50 was more than 15000 nM. Further, the concentration for half-maximal inhibition (IC50) in series [2] is 0.075 µM.

`CC(C)=CC(CC(C)(C)c1ccc(F)cc1)N1CCC(C2CCOCC2)CC1` (stereo not shown) yielded a log P in series [1] of 5.85. Moreover, the half-maximal effective concentration (EC50) in series [5] worked out at 1600 nM. Also, the IC50 in series [2] is 2.2 µM. In series [3], the “MLM T1/2” value amounted to 14 min. Moreover, the Ki in series [4] came out at 40 nM.

Consider `COC[C@H]1CCCN1[C@H](C)CC(C)(C)c1ccc(C(F)(F)F)cc1`, for which the log partition coefficient (log P) in series [1] was 4.95. Further, the concentration for a half-maximal effect (EC50) in series [5] was determined as 980 nM. Also, in series [2], the 50% inhibitory concentration (IC50) turned out to be 11 µM. In series [4], the Ki was determined as 1000 nM.

Take `CC(C)=CC(CC(C)(C)c1ccc(C)cc1)N1CCC(C)CC1` (stereo not shown): the lipophilicity (log P) in series [1] was 6.31. Moreover, in series [5], the EC50 was found to be 1700 nM. The Ki in series [6] stood at 96 nM.

As to `CC(CC(C)(C)c1ccc(C(F)(F)F)cc1)N1CCC(CO)CC1` (stereo not shown), in series [1], the log P stood at 4.31. Moreover, in series [5], the EC50 was more than 15000 nM. Further, in series [2], the IC50 came to 1.5 µM. Further, the Ki in series [4] is 0.7 nM.

`CC(C)=CC(CC(C)(C)c1ccc(C)cc1)N[C@@H](C)c1ccccc1` (stereo partly shown): the log P in series [1] was found to be 6.93. In series [5], the concentration for a half-maximal effect (EC50) stood at 4200 nM.

In series [1], `CC(C)=CC(CC(C)(C)c1ccc(Cl)cc1)NCC1CCOCC1` (stereo not shown) gave a log P of 5.3. Moreover, the EC50 in series [5] was 1800 nM.

In series [1], `COC(=O)N1CCN(C(C=C(C)C)CC(C)(C)c2ccc(F)cc2)CC1` (stereo not shown) had a log P of 4.49. For the same compound, in series [2], the 50% inhibitory concentration (IC50) amounted to 1.9 µM. Further, the inhibition constant Ki in series [4] came out at 571 nM.

For the compound `CC(CC(C)(C)c1ccc(Cl)cc1)N1CCC[C@@H]1CO` (stereo partly shown), the log P in series [1] turned out to be 4.03. Also, the IC50 in series [2] came to 11 µM.

Compound `CC(C)=CC(CC(C)(C)c1ccc(C(F)(F)F)cc1)N1CCN(C2CC(C)OC(C)C2)CC1` (stereo not shown) displayed a log P in series [1] of 6.18. In addition, in series [5], the half-maximal effective concentration (EC50) was determined as 200 nM. Further, the 50% inhibitory concentration (IC50) in series [2] is 26.2 µM. The “MLM T1/2” value in series [3] turned out to be 38 min. The Ki in series [4] was 8.8 nM.
